From ChEMBL document CHEMBL1146625, “The kinetics of binding to p38MAP kinase by analogues of BIRB 796” (Bioorg Med Chem Lett, 2003)

Amino acid sequences for entries named in this document (tags omitted).
UniProt Q16539, whole entry: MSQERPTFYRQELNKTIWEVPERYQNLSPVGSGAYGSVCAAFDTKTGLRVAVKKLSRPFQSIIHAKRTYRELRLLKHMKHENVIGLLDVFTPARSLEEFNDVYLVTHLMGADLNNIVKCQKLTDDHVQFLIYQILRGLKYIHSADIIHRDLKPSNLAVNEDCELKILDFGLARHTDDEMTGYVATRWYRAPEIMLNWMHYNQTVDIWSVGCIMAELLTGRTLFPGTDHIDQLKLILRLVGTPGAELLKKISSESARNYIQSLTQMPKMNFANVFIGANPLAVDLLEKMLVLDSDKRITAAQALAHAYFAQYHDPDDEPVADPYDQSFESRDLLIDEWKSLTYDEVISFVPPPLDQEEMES

How the values were obtained:
[1] = target: T1, Mitogen-activated protein kinase 14 (Homo sapiens, UniProt Q16539)
[2] = target: T1, Mitogen-activated protein kinase 14; remark: listed apart in the source

Structure (SMILES)	k off [1] [s⁻¹]	k on [2] [M⁻¹ s⁻¹]
Cc1ccc(-n2nc(C(C)(C)C)cc2NC(=O)Nc2ccc(CCCN3CCOCC3)c3ccccc23)cc1	2.3e-05	18700
CC(C)(C)c1cc(NC(=O)Nc2ccc(OCCN3CCOCC3)c3ccccc23)n(-c2ccccc2)n1	1.5e-05	154000
Cc1ccc(-n2nc(C(C)(C)C)cc2NC(=O)Nc2ccc(OCCN3CCOCC3)c3ccccc23)cn1	2.3e-05	21500
Cc1ccc(-n2nc(C(C)(C)C)cc2NC(=O)Nc2cccc3ccccc23)cc1	0.00012	113000
Cc1ccc(-n2nc(C(C)(C)CO)cc2NC(=O)Nc2ccc(OCCN3CCOCC3)c3ccccc23)cc1	0.0004	25400
Cn1nc(C(C)(C)C)cc1NC(=O)Nc1ccc(OCCN2CCOCC2)c2ccccc12	0.0033	145000
CC(C)c1cc(NC(=O)Nc2ccc(OCCN3CCOCC3)c3ccccc23)n(-c2ccccc2)n1	0.00038	64800
Cc1ccc(-n2nc(C(C)(C)C)cc2NC(=O)Nc2ccccc2)cc1	0.0016	73300
COc1cc(NC(=O)Nc2cc(C(C)(C)C)nn2-c2ccc(C)cc2)c2ccccc2c1OCCN1CCOCC1	0.00015	10700
COc1cc(NC(=O)Nc2cc(C(C)(C)C)nn2-c2ccc(C)cc2)c2ccccc2c1	0.00034	36100
Cc1ccc(-n2nc(C(C)(C)C)cc2NC(=O)Nc2ccc(OCCN3CCOCC3)c3ccccc23)cc1CN(C)C	3.8e-05	7900
CN(C)Cc1cccc(-n2nc(C(C)(C)C)cc2NC(=O)Nc2ccc(OCCN3CCOCC3)c3ccccc23)c1	2.6e-05	1600
